Measurements taken from patent US20260355192A1, “PROPHYLACTIC OR THERAPEUTIC AGENT FOR PERIOSTIN-MEDIATED DISEASE AND PRURITUS ASSOCIATED THEREWITH” (SAGA UNIVERSITY, priority 2022, published 2026).

By UniProt entry, the sequences of proteins in these tests, tags left out. Residues count along the entry.
UniProt P05106, 27-788: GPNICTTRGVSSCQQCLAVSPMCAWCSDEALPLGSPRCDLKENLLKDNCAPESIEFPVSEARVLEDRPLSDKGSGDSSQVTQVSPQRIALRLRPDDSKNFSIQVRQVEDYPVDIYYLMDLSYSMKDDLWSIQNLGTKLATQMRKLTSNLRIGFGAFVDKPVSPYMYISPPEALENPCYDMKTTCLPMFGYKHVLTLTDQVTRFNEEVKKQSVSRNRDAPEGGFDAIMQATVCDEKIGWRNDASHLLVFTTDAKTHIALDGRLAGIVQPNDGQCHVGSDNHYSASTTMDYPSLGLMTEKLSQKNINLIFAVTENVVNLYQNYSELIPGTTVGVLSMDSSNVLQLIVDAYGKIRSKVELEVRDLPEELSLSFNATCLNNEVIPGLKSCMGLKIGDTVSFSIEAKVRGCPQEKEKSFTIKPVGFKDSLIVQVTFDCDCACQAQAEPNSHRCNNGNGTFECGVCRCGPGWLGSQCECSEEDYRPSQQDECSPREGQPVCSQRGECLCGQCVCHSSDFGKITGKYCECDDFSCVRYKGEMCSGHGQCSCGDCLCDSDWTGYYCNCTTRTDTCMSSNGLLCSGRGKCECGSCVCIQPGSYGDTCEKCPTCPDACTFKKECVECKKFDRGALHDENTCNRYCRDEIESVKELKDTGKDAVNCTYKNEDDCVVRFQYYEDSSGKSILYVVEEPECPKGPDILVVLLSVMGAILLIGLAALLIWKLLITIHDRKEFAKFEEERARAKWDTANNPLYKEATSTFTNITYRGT
UniProt P06756, 891-1048 partner limits assumed: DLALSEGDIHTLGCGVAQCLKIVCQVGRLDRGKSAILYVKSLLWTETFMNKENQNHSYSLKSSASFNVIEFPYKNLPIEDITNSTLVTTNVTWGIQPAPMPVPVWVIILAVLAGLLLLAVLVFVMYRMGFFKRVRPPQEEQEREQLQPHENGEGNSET
UniProt P06756, 31-889 limits assumed: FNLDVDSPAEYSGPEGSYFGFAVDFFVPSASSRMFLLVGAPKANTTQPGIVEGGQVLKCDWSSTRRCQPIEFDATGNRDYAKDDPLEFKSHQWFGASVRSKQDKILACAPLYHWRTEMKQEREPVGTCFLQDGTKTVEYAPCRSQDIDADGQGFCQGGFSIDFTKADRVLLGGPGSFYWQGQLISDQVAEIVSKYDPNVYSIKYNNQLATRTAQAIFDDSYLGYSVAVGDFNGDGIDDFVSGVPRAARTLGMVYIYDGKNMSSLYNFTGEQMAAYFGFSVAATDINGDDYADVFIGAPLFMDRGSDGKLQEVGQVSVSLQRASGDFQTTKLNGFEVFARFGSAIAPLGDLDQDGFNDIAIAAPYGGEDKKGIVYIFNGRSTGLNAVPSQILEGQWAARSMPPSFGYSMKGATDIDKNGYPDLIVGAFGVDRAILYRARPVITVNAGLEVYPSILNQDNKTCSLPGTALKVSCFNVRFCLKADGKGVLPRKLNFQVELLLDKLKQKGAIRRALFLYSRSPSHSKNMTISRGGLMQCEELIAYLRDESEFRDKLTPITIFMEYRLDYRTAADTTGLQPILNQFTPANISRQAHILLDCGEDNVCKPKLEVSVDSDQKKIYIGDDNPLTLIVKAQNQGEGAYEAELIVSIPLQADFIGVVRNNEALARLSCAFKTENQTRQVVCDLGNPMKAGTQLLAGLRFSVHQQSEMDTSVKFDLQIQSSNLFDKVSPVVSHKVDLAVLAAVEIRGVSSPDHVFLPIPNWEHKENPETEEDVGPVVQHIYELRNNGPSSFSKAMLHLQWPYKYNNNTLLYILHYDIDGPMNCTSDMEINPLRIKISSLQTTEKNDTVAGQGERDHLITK

Biological target: T1, integrin αvβ3 (Homo sapiens, UniProt P05106+P06756)
T1 construct: SW480 cells, a human colon cancer cell line not expressing integrin β3; expressed in transfected cells; host or cells: SW480 cells (human colon cancer) stably expressing human integrin β3
Experiment: Inhibition of periostin-dependent adhesion of SW480 cells expressing integrin αvβ3
Type: cell-based
Conditions: SW480 cells expressing human integrin β3; immobilized recombinant human periostin; compounds at 0.001-1 μM; FIG. 6; read-out: 50% inhibition concentration (IC50 value) for cell adhesion inhibitory activity
Experimental: For use in cell adhesion experiments, SW480 cells, a human colon cancer cell line not expressing integrin β3, were genetically engineered to stably express human integrin β3 (Nanri Y, et al. Am J Respir Cell Mol Biol. 62:204-216, 2020). The compounds shown in Table 1 were examined for their inhibitory activity against adhesion between integrin αvβ3 and periostin according to the following procedures. First, a 96-well plate was treated with 10 μg/mL recombinant human periostin (Bio-Techne) at 4 °C for 16 hours to immobilize periostin. The SW480 cells expressing integrin αvβ3 (5×10^4 cells) were reacted at room temperature for 15 minutes with the above compounds at 0.001, 0.01, 0.1 and 1 μM in serum-free DMEM (Dulbecco's Modified Eagle Medium) containing 0.5% bovine serum albumin and 0.25 mM MnCl2. A group receiving no compound was used as a control. The reacted cell suspensions were added to separate wells of the above human periostin-immobilized plate, and the plate was centrifuged at 10×g for 5 minutes and then cultured at 37 °C for 60 minutes. Then, after the adhered cells were washed to remove unbound cells, the adhered cells were fixed with 1% formaldehyde and stained with 0.5% crystal violet. The fixed and stained cells were solubilized with 0.2% Triton X-100 and measured for absorbance at 595 nm. […]

## N=C(N)Nc1cccc(C(=O)NCC(=O)NC(CC(=O)O)c2cc(Cl)cc(Cl)c2)c1 (stereo not shown) [SC-68448, 3-(3,5-Dichlorophenyl)-3-(2-(3-guanidinobenzamido)acetamido)propanoic acid]
  IC50: ≤ 20 nM
